The species entered for the test is Homo sapiens. The test is described as follows: Selectivity, ratio of EC50 for human P2Y6 receptor to EC50 for human P2Y14 receptor.

For `O=c1ccn([C@@H]2O[C@H](COP(=O)(O)C(F)(F)P(=O)(O)O)[C@@H](O)[C@H]2O)c(=O)[nH]1`, the Ratio EC50 is over 2000.

The values above are taken from ChEMBL document CHEMBL1156754, “Human P2Y(14) receptor agonists: truncation of the hexose moiety of uridine-5'-diphosphoglucose and its replacement with alkyl and aryl groups” (J Med Chem, 2010).
